Test results taken from PubChem BioAssay AID651821 (The Scripps Research Institute Molecular Screening Center, 2012).
This is a selection; strong and weak results do not stand in their true shares. Active and inactive are the calls of the source.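 Rule for the calls: active = inhibition above the plate cutoff, the mean of all test compounds on that plate plus 3 SD (cut at about 35% in these data); inactive = the rest.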

Assay: binders of r(CAG) RNA repeats, primary screen, biochemical, fluorescence (AID 651821);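 note: 0% = DMSO alone and 100% = 100 µM mitoxantrone as full dye displacement; higher means more dye released from RNA so lower well fluorescence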
Settings: r(CAG) RNA repeat, TO-PRO-1 dye displacement fluorescence; at 3 µM; active compounds read high

| SMILES | inhibition |
| --- | --- |
| CCN(/C(=N/P(=O)(N1CCOCC1)N1CCOCC1)N1CCOCC1)c1ccc(OC)cc1 | inactive: -7.71% |
| Nc1ccc([As](=O)(O)c2ccc(N)cc2)cc1 | inactive: -1.54% |
| C[N+]1=C2C=CC=CC=C2SC12C([N+](=O)[O-])=CC([N+](=O)[O-])=C[C-]2[N+](=O)[O-] (centres undefined) | inactive: 33.9% |
| c1cc(-c2nn[nH]n2)ccc1-c1nn[nH]n1 | inactive: 1.52% |
| CC1CCN(C(=O)Oc2c(Cl)cc(Cl)c3cccnc23)CC1 | inactive: -7.56% |
| CC(C)=N/N=C(\N)N[N+](=O)[O-] | inactive: -3.72% |
| CC(C)c1nc(Nc2ccccc2)n(P(=O)(N(C)C)N(C)C)n1 | inactive: -2.21% |
| CN(C)C(=O)OCCc1n(C)cc[n+]1C | inactive: -0.2% |
| COc1ccc(C2=NCC(CBr)S2)cc1 (centres undefined) | inactive: 7.64% |
| Cc1ccc(NP(=O)(Oc2ccccc2)Oc2ccccc2)nc1 | inactive: -3.37% |
| O=[N+]([O-])c1cc([N+](=O)[O-])c(CCNc2ccccc2)c([N+](=O)[O-])c1 | inactive: 26.9% |
| CCc1nc2c(n1)c1c(non1O)c1c2no[n+]1[O-] | inactive: 2.33% |
| CC(=O)N1C2C3N(C(C)=O)C1C1N(C(C)=O)C(C(N1C(C)=O)N3C(C)=O)N2C(C)=O | inactive: 5.06% |
| O=[N+]([O-])c1cccc2n[nH]nc12 | inactive: -2.91% |
| O=[N+]([O-])c1ncn(CCn2ncnc2[N+](=O)[O-])n1 | inactive: 0.82% |
| CC(C)(C)C(=O)NC(Sc1ccncn1)C(Cl)(Cl)Cl (centres undefined) | inactive: -1.07% |
| O=C(O)CNc1ccc([As](=O)(O)O)cc1 | inactive: 1.85% |
| O=[N+]([O-])c1cccc(NC2=NCC(CBr)S2)c1 (centres undefined) | inactive: 4.7% |
| COC(=O)C1(C)COP(=O)(Nc2ccccc2)OC1 (centres undefined) | inactive: 3.3% |
| O=P1(N(CCCl)CCCl)OCCCS1 (centres undefined) | inactive: 1.63% |
| O=C(Nc1cc([As](=O)(O)O)ccc1O)c1ccccc1 | inactive: -2.21% |
| Nc1cccc2ccc([As](=O)(O)O)cc12 | inactive: -2.55% |

| SMILES | inhibition |
| --- | --- |
| CN(C(=O)Cc1ccccc1)C1CC[C@@]2(CCCO2)C[C@@H]1N1CCCC1 (some centres undefined) | inactive: 3.58% |
| CCN(N=Nc1nonc1N)c1nonc1N | inactive: 1.89% |
| CN(C)P(=O)(N(C)C)n1c(Nc2ccccc2)nnc1-c1ccccc1 | inactive: -1.17% |
| O=P(Nc1nc2ccc(Cl)cc2s1)(c1ccccc1)c1ccccc1 | inactive: 10.6% |
| O=C(O)c1ccccc1[As](=O)(O)O | inactive: -1.85% |
| CC(=O)Nc1ccc([As](=O)(O)O)cc1 | inactive: -2.48% |
| CCCC1OP(N)(=O)OCC1CC (centres undefined) | inactive: 1.25% |
| CCn1c(=O)n(C2CCN(CC3CCCCCCC3)C[C@H]2CO)c2ccccc21 (some centres undefined) | inactive: -1.29% |
| CCOP(=O)(Nc1ccccc1)OCC | inactive: -0.54% |
| Cc1cc(SC(NC(=O)c2ccc(F)cc2)C(Cl)(Cl)Cl)ncn1 (centres undefined) | inactive: -1.15% |
| Cc1ccc(NP(=O)(Oc2ccccc2F)Oc2ccccc2F)nc1 | inactive: -0.62% |
| Oc1ccccc1CNc1ccccn1 | inactive: -0.23% |
| O=C(NC(Sc1ccncn1)C(Cl)(Cl)Cl)c1ccccc1 (centres undefined) | inactive: -3.67% |
| CC(C)CC(=O)NC(Sc1ccc(Cl)cc1)C(Cl)(Cl)Cl (centres undefined) | inactive: -6.19% |
| Nc1cc(N)c2nonc2c1[N+](=O)[O-] | inactive: 0.07% |
| Cc1ccc(N/C(=N/P(=O)(N2CCOCC2)N2CCOCC2)N2CCOCC2)cc1 | inactive: -4.42% |
| NC(=O)c1cc([N+](=O)[O-])cc([N+](=O)[O-])c1N | inactive: 1.86% |
| Clc1ccc(Cl)c(NC2=NCC(CBr)S2)c1 (centres undefined) | inactive: 1.77% |
| CN1CCCC(OC(=O)C(c2ccccc2)c2ccccc2)C1 (centres undefined) | inactive: -10.7% |
| COc1ccccc1OP(=O)(Nc1ccc(C)cn1)Oc1ccccc1OC | inactive: -3.64% |
| Cc1ccc(OP(=O)(Nc2nccs2)Oc2ccc(C)cc2)cc1 | inactive: -0.69% |
| Cc1ccccc1CN(C)C(=O)COC(=O)C(O)(c1ccccc1)c1ccccc1 | inactive: 1.69% |

| SMILES | inhibition |
| --- | --- |
| C[C@@H]1C=CCP(=O)(Oc2ccccc2)O1 (some centres undefined) | inactive: 0.45% |
| C[C@H]1OP(=O)(Oc2ccccc2)C[C@@H]2O[C@@H]21 (some centres undefined) | inactive: -0.11% |
| N#C/C(=C\c1ccc(N(CCBr)CCBr)cc1)C(N)=O | inactive: 2.73% |
| CC(=O)c1ccc(N2CC2c2ccncc2)cc1 (centres undefined) | inactive: 3.86% |
| COC(=O)C1(C)COP(=O)(NCc2ccccc2)OC1 (centres undefined) | inactive: -0.83% |
| CC(=O)Nc1ccc([As](=O)(O)O)c(O)c1 | inactive: 0.07% |
| CC(=O)Nc1ccc(Oc2c([N+](=O)[O-])cc([N+](=O)[O-])cc2[N+](=O)[O-])cc1 | inactive: 5.85% |
| O=P1(Nc2nc3ccc(Cl)cc3s2)COc2ccccc2O1 (centres undefined) | inactive: 0.3% |
| CCOc1ccc(C2=NCC(CBr)S2)cc1 (centres undefined) | inactive: -1.57% |
| CC(C)(C)C(=O)NC(Sc1ccccc1)C(Cl)(Cl)Cl (centres undefined) | inactive: -6.45% |
| CCc1cc(O)c([N+](=O)[O-])c(C)c1[N+](=O)[O-] | inactive: 2.84% |
| O=C(OC1CN2CCC1CC2)c1ccccc1 (centres undefined) | inactive: -1.08% |
| CCC(=O)N1C2C3N(C(=O)CC)C1C1N(C(=O)CC)C(C(N1C(=O)CC)N3C(=O)CC)N2C(=O)CC | inactive: -0.22% |
| COC(=O)c1cc2c(s1)N=C(c1ccccc1)N(C)P2(=O)N1CCOCC1 (centres undefined) | inactive: 2.12% |
| Cc1ccc(OP(=O)(Nc2ccccn2)Oc2ccc(C)cc2)cc1 | inactive: -7.94% |
| CC(=O)NC(SC(=S)N(CC(C)C)CC(C)C)C(Cl)(Cl)Cl (centres undefined) | inactive: 0.2% |
| Cc1ccccc1OP(=O)(Nc1ccccn1)Oc1ccccc1C | inactive: -8.49% |
| CC(NC(=O)COC(=O)C(O)(c1ccccc1)c1ccccc1)c1ccccc1 (centres undefined) | inactive: -9.92% |
| CN(C)C(=O)Oc1noc2ccccc12 | inactive: -0.59% |
| O=c1c2cc([N+](=O)[O-])ccc2[nH]c2c([N+](=O)[O-])cc([N+](=O)[O-])cc12 | inactive: 27.6% |
